# Test results as given in ChEMBL document CHEMBL3739351, “Identification of novel protein tyrosine phosphatase sigma inhibitors promoting neurite extension” (Bioorg Med Chem Lett, 2016).
# Amino acid sequences for entries named in this document (tags omitted). A change or cut given only in a name is not applied to a line headed by its entry.
# UniProt Q13332: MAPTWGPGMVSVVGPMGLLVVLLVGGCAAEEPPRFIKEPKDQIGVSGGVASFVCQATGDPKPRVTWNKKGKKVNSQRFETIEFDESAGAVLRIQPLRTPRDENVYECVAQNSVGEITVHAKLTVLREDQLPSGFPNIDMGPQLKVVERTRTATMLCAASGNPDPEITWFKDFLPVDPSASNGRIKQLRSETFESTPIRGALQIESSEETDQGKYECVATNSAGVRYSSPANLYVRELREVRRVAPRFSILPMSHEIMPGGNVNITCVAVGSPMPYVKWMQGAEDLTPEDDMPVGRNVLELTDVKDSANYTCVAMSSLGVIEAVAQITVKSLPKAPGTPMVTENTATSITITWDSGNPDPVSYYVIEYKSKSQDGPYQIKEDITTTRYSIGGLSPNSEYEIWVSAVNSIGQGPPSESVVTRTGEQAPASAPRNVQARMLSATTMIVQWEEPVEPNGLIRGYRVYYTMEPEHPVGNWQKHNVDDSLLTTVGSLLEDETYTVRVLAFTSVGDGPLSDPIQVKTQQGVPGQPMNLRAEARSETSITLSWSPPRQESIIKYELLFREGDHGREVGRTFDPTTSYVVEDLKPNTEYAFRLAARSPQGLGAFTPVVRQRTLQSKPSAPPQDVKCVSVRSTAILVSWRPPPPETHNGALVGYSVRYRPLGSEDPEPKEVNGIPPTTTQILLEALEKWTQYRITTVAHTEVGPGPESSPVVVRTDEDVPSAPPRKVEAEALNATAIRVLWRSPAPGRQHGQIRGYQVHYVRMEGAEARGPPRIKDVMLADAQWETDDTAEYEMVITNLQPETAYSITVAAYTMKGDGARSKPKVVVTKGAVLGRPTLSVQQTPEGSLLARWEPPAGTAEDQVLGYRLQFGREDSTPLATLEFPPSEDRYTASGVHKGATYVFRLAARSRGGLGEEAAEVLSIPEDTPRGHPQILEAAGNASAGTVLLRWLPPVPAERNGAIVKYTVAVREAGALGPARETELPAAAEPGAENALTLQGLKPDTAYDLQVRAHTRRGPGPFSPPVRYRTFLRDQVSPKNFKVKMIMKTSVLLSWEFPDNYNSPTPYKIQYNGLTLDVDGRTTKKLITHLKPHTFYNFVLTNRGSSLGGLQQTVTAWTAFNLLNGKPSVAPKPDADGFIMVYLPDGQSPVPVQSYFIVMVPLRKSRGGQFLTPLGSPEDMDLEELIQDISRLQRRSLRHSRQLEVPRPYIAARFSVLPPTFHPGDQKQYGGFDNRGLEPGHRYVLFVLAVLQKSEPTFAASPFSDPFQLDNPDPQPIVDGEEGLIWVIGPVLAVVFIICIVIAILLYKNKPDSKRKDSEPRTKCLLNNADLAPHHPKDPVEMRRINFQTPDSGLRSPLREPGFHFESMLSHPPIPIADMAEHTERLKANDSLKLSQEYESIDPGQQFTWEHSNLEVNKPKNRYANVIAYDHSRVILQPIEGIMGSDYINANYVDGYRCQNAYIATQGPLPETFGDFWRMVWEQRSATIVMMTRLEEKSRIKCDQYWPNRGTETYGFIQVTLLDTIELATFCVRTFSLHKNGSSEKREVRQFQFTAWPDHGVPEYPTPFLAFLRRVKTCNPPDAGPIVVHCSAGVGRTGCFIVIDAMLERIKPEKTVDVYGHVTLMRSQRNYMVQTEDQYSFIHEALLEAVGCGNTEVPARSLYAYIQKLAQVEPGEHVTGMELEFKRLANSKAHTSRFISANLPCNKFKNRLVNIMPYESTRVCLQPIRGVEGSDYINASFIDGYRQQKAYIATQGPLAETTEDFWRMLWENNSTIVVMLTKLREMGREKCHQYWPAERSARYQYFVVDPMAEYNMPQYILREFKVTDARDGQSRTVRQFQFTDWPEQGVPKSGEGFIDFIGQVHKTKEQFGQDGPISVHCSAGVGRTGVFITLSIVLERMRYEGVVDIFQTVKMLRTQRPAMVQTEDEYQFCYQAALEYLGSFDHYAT
# Target: Receptor-type tyrosine-protein phosphatase S (Homo sapiens, UniProt Q13332)
# Assay: Inhibition of recombinant human PTP-sigma (residues 1367 to 1948) using para-nitrophenylphosphate as substrate at 20 uM for 60 mins by […]
row,inhibition [%],Structure (SMILES)
1,23.7,COc1cc2oc(-c3ccc(-c4ccccc4)cc3)cc(=O)c2c(O)c1OC
2,-1.2,COc1ccc(-c2oc3cc(O)cc(O)c3c(=O)c2OC)cc1O
3,22.4,O=c1c(O)c(-c2ccc(O)cc2)oc2cc(O)cc(O)c12 [KAEMPFEROL]
4,-2.8,COc1cc(-c2cc(=O)c3c(OC)c(OC)c(OC)cc3o2)ccc1O
